How the values were obtained:
CRF2R = biological target: T1, CRF2R (Homo sapiens, UniProt Q13324); experiment: CRF2R agonist activation (EC50 / Emax), called comparative CRF binding; type: cell-based; conditions: for Emax: read-out: CRF2R Emax
T1 sequence (Q13324 1-411): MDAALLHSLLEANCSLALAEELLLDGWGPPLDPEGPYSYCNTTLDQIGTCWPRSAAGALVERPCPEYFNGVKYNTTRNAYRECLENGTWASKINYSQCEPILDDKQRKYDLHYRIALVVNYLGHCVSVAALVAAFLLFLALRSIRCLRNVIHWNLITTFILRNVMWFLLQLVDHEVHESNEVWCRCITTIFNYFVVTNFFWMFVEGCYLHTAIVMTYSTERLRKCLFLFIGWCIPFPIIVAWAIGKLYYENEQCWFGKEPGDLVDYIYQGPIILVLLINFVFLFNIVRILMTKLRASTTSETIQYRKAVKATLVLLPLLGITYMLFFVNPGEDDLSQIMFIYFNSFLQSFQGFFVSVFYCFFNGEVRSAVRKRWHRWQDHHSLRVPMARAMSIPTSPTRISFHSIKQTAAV
How it was run: (§1)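 Cells expressing human CRF1R or CRF2R are exposed to peptide or vehicle control, and receptor activation is read as cAMP induction, measured in cell lysates or via a CRE-linked reporter gene.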

CRF1R = biological target: T2, CRF1R (Homo sapiens, UniProt P34998); experiment: CRF1R agonist activation (EC50 / Emax), called comparative CRF binding; type: cell-based; conditions: for Emax: read-out: CRF1R Emax; for EC50: CRF1R EC50
T2 sequence (P34998 24-415): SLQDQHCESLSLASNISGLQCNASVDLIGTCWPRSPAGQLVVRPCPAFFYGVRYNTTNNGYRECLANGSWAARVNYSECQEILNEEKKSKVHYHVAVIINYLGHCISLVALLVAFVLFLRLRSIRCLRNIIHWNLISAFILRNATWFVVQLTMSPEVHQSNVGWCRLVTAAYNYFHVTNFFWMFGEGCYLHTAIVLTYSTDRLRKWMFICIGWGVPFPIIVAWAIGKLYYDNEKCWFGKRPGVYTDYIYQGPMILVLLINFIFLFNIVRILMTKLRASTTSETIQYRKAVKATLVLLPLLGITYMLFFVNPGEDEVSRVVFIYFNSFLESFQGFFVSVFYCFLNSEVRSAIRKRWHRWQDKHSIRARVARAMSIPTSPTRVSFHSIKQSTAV
How it was run: as §1

Row | Compound | Emax (CRF2R) [%] | Emax (CRF1R) [%] | EC50 (CRF2R) [nM] | EC50 (CRF1R) [nM]
1 | CC[C@H](C)[C@H](NC(=O)[C@@H](NC(=O)[C@H](CC(=O)O)NC(=O)[C@H](CC(C)C)NC(=O)[C@H](CC(C)C)NC(=O)[C@H](CC(C)C)NC(=O)[C@H](CCCNC(=N)N)NC(=O)[C@H](CC(N)=O)NC(=O)[C@H](CC(N)=O)NC(=O)[C@H](C)NC(=O)[C@H](C)NC(=O)[C@H](CCC(N)=O)NC(=O)[C@H](CCC(N)=O)NC(=O)[C@H](CCCCN)NC(=O)[C@H](CCC(=O)O)NC(=O)[C@H](CCCCN)NC(=O)[C@H](CCC(=O)O)NC(=O)[C@H](CCC(N)=O)NC(=O)[C@H](CCCCN)NC(=O)[C@H](CCC(=O)O)NC(=O)[C@@H](NC(=O)[C@H](CCC(=O)O)NC(=O)[C@@H](NC(=O)[C@H](CCSC)NC(=O)[C@H](CCCCN)NC(=O)[C@H](CCCNC(=N)N)NC(=O)[C@H](CC(C)C)NC(=O)[C@H](CC(C)C)NC(=O)[C@H](Cc1c[nH]cn1)NC(=O)[C@H](C)NC(=O)[C@@H]1CCCN1C(=O)[C@H](CC(C)C)NC(=O)[C@H](CC(=O)O)NC(=O)[C@@H](NC(=O)[C@H](CO)NC(=O)[C@@H](NC(=O)[C@@H]1CCCN1C(=O)[C@@H]1CCCN1C(=O)CNC(=O)[C@@H]1CCC(=O)N1)[C@@H](C)CC)[C@@H](C)CC)[C@@H](C)CC)[C@@H](C)CC)[C@@H](C)O)C(N)=O [compound 206] | 97 | 97 | – | –
2 | CC[C@H](C)[C@H](NC(=O)[C@H](CCCNC(=N)N)NC(=O)[C@H](C)NC(=O)[C@H](CC(C)C)NC(=O)[C@H](CC(C)C)NC(=O)[C@H](CCCNC(=N)N)NC(=O)[C@H](C)NC(=O)[C@H](CC(N)=O)NC(=O)[C@H](CC(N)=O)NC(=O)[C@H](C)NC(=O)[C@H](C)NC(=O)[C@H](CCC(N)=O)NC(=O)[C@H](CCC(N)=O)NC(=O)[C@H](CCCCN)NC(=O)[C@H](CCC(=O)O)NC(=O)[C@H](CCCCN)NC(=O)[C@H](CCC(=O)O)NC(=O)[C@H](CCC(N)=O)NC(=O)[C@H](CCCCN)NC(=O)[C@H](CCC(=O)O)NC(=O)[C@@H](NC(=O)[C@H](CCC(=O)O)NC(=O)[C@@H](NC(=O)[C@@H](NC(=O)[C@H](CCCCN)NC(=O)[C@H](CCCNC(=N)N)NC(=O)[C@H](CC(C)C)NC(=O)[C@H](CC(C)C)NC(=O)[C@H](CCC(N)=O)NC(=O)[C@H](Cc1ccc(O)cc1)NC(=O)[C@@H]1CCCN1C(=O)[C@@H](NC(=O)[C@H](CC(=O)O)NC(=O)[C@@H](NC(=O)[C@H](CO)NC(=O)[C@@H](NC(=O)[C@@H]1CCCN1C(=O)[C@@H]1CCCN1C(=O)CNC(=O)[C@@H]1CCC(=O)N1)[C@@H](C)CC)[C@@H](C)CC)C(C)C)C(C)C)[C@@H](C)CC)[C@@H](C)CC)C(N)=O [compound 375] | 100 | 22 | – | –
3 | CC[C@H](C)[C@H](NC(=O)[C@@H](NC(=O)[C@H](C)NC(=O)[C@H](CC(C)C)NC(=O)[C@H](CC(C)C)NC(=O)[C@H](CC(C)C)NC(=O)[C@H](C)NC(=O)[C@H](CC(N)=O)NC(=O)[C@H](CC(N)=O)NC(=O)[C@H](C)NC(=O)[C@H](C)NC(=O)[C@H](CCC(N)=O)NC(=O)[C@H](CCC(N)=O)NC(=O)[C@H](CCCCN)NC(=O)[C@H](CCC(=O)O)NC(=O)[C@H](CCCCN)NC(=O)[C@H](CCC(=O)O)NC(=O)[C@H](CCC(N)=O)NC(=O)[C@H](CCCCN)NC(=O)[C@H](CCC(=O)O)NC(=O)[C@@H](NC(=O)[C@H](CCC(=O)O)NC(=O)[C@@H](NC(=O)[C@H](CC(C)C)NC(=O)[C@@H](NC(=O)[C@H](CCCNC(=N)N)NC(=O)[C@H](CC(C)C)NC(=O)[C@H](CC(C)C)NC(=O)[C@H](CCC(N)=O)NC(=O)[C@H](Cc1ccccc1)NC(=O)[C@@H]1CCCN1C(=O)[C@H](CC(C)C)NC(=O)[C@H](CC(=O)O)NC(=O)[C@@H](NC(=O)[C@H](CO)NC(=O)[C@@H](NC(=O)[C@@H]1CCCN1C(=O)[C@@H]1CCCN1C(=O)CNC(=O)[C@@H]1CCC(=O)N1)[C@@H](C)CC)[C@@H](C)CC)C(C)C)[C@@H](C)CC)[C@@H](C)CC)[C@@H](C)O)C(N)=O [compound 361] | 99 | 100 | 6.37 | 149
4 | CC[C@H](C)[C@H](NC(=O)[C@H](CCC(=O)O)NC(=O)[C@@H](NC(=O)[C@H](CCSC)NC(=O)[C@H](CCCCN)NC(=O)[C@H](CCCNC(=N)N)NC(=O)[C@H](CC(C)C)NC(=O)[C@H](CC(C)C)NC(=O)[C@H](CCC(N)=O)NC(=O)[C@H](Cc1ccccc1)NC(=O)[C@@H]1CCCN1C(=O)[C@H](CC(C)C)NC(=O)[C@H](CC(=O)O)NC(=O)[C@@H](NC(=O)[C@H](CO)NC(=O)[C@@H](NC(=O)[C@@H]1CCCN1C(=O)[C@@H]1CCCN1C(=O)CNC(=O)[C@@H]1CCC(=O)N1)[C@@H](C)CC)[C@@H](C)CC)[C@@H](C)CC)C(=O)N[C@@H](CCC(=O)O)C(=O)N[C@@H](CCCCN)C(=O)N[C@@H](CCC(N)=O)C(=O)N[C@@H](CCC(=O)O)C(=O)N[C@@H](CCCCN)C(=O)N[C@@H](CCC(=O)O)C(=O)N[C@@H](CCCCN)C(=O)N[C@@H](CCC(N)=O)C(=O)N[C@@H](CCC(N)=O)C(=O)N[C@@H](C)C(=O)N[C@H](C(=O)N[C@H](C(=O)N[C@@H](CC(N)=O)C(=O)N[C@@H](CCCNC(=N)N)C(=O)N[C@@H](CC(C)C)C(=O)N[C@@H](CC(C)C)C(=O)N[C@@H](CC(C)C)C(=O)N[C@@H](CC(=O)O)C(=O)N[C@H](C(=O)N[C@H](C(N)=O)C(C)C)[C@@H](C)O)[C@@H](C)O)[C@@H](C)O [compound 16] | 86 | 98 | – | –
5 | CC[C@H](C)[C@H](NC(=O)[C@@H](NC(=O)[C@H](CC(=O)O)NC(=O)[C@H](CC(C)C)NC(=O)[C@H](CC(C)C)NC(=O)[C@H](CC(C)C)NC(=O)[C@H](CCCNC(=N)N)NC(=O)[C@H](CC(N)=O)NC(=O)[C@H](CC(N)=O)NC(=O)[C@H](C)NC(=O)[C@H](C)NC(=O)[C@H](CCC(N)=O)NC(=O)[C@H](CCC(N)=O)NC(=O)[C@H](CCCCN)NC(=O)[C@H](CCC(=O)O)NC(=O)[C@H](CCCCN)NC(=O)[C@H](CCC(=O)O)NC(=O)[C@H](CCC(N)=O)NC(=O)[C@H](CCCCN)NC(=O)[C@H](CCC(=O)O)NC(=O)[C@@H](NC(=O)[C@H](CCC(=O)O)NC(=O)[C@@H](NC(=O)[C@H](CCSC)NC(=O)[C@H](CCCCN)NC(=O)[C@H](CCCNC(=N)N)NC(=O)[C@H](CC(C)C)NC(=O)[C@H](CC(C)C)NC(=O)[C@H](CC(C)C)NC(=O)[C@H](CC(C)C)NC(=O)[C@@H]1CCCN1C(=O)[C@H](CC(C)C)NC(=O)[C@H](CC(=O)O)NC(=O)[C@@H](NC(=O)[C@H](CO)NC(=O)[C@@H](NC(=O)[C@@H]1CCCN1C(=O)[C@@H]1CCCN1C(=O)CNC(=O)[C@@H]1CCC(=O)N1)[C@@H](C)CC)[C@@H](C)CC)[C@@H](C)CC)[C@@H](C)CC)[C@@H](C)O)C(N)=O [compound 188] | 100 | 96 | – | –
6 | CC[C@H](C)[C@H](NC(=O)[C@@H](NC(=O)[C@H](CC(=O)O)NC(=O)[C@H](CC(C)C)NC(=O)[C@H](CC(C)C)NC(=O)[C@H](CC(C)C)NC(=O)[C@H](CCCNC(=N)N)NC(=O)[C@H](CC(N)=O)NC(=O)[C@H](CC(N)=O)NC(=O)[C@H](C)NC(=O)[C@H](C)NC(=O)[C@H](CCC(N)=O)NC(=O)[C@H](CCC(N)=O)NC(=O)[C@H](CCCCN)NC(=O)[C@H](CCC(=O)O)NC(=O)[C@H](CCCCN)NC(=O)[C@H](CCC(=O)O)NC(=O)[C@H](CCC(N)=O)NC(=O)[C@H](CCCCN)NC(=O)[C@H](CCC(=O)O)NC(=O)[C@@H](NC(=O)[C@H](CCC(=O)O)NC(=O)[C@@H](NC(=O)[C@H](CCSC)NC(=O)[C@H](CCCCN)NC(=O)[C@H](CCCNC(=N)N)NC(=O)[C@H](CC(C)C)NC(=O)[C@H](CC(C)C)NC(=O)[C@H](Cc1ccccc1)NC(=O)[C@H](Cc1ccccc1)NC(=O)[C@@H]1CCCN1C(=O)[C@H](CC(C)C)NC(=O)[C@H](CC(=O)O)NC(=O)[C@@H](NC(=O)[C@H](CO)NC(=O)[C@@H](NC(=O)[C@@H]1CCCN1C(=O)[C@@H]1CCCN1C(=O)CNC(=O)[C@@H]1CCC(=O)N1)[C@@H](C)CC)[C@@H](C)CC)[C@@H](C)CC)[C@@H](C)CC)[C@@H](C)O)C(N)=O [compound 223] | 92 | 81 | 3 | 48.1

— patent US6936585B2, “Corticotropin releasing factor 2 receptor agonists” (priority 2002, dated 2005)
